Test results published in BigSolDB 2.1.

Details: in n-butanol, 305.65 K

solubility (mole fraction): 0.0479
Compound: CC1=NN(c2ccc(C)cc2)C(=O)C1
